Amino acid sequences for entries named in this document (tags omitted). Residues count along the entry.
UniProt P23739, 1014-1841 limits assumed: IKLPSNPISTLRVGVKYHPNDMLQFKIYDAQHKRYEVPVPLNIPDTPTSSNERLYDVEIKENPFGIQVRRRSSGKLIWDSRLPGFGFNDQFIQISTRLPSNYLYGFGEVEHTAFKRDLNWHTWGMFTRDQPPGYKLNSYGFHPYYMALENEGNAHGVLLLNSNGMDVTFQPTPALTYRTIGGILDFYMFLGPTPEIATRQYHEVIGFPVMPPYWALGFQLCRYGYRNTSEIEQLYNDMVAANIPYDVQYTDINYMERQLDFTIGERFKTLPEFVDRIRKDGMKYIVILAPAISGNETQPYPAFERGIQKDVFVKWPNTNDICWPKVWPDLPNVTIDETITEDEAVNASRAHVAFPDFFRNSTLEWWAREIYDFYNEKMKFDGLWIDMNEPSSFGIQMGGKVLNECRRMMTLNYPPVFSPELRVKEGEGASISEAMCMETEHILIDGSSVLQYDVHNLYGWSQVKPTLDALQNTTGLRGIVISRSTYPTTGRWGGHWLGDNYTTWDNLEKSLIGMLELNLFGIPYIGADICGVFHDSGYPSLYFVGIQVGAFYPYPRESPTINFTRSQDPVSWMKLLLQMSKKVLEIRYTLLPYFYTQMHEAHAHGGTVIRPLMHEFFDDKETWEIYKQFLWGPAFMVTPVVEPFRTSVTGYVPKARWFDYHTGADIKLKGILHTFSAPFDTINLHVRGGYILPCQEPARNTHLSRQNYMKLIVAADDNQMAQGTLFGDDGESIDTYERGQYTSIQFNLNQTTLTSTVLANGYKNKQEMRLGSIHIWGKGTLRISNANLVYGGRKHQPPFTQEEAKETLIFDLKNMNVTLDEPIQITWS
UniProt P23739, 1-1013 limits assumed: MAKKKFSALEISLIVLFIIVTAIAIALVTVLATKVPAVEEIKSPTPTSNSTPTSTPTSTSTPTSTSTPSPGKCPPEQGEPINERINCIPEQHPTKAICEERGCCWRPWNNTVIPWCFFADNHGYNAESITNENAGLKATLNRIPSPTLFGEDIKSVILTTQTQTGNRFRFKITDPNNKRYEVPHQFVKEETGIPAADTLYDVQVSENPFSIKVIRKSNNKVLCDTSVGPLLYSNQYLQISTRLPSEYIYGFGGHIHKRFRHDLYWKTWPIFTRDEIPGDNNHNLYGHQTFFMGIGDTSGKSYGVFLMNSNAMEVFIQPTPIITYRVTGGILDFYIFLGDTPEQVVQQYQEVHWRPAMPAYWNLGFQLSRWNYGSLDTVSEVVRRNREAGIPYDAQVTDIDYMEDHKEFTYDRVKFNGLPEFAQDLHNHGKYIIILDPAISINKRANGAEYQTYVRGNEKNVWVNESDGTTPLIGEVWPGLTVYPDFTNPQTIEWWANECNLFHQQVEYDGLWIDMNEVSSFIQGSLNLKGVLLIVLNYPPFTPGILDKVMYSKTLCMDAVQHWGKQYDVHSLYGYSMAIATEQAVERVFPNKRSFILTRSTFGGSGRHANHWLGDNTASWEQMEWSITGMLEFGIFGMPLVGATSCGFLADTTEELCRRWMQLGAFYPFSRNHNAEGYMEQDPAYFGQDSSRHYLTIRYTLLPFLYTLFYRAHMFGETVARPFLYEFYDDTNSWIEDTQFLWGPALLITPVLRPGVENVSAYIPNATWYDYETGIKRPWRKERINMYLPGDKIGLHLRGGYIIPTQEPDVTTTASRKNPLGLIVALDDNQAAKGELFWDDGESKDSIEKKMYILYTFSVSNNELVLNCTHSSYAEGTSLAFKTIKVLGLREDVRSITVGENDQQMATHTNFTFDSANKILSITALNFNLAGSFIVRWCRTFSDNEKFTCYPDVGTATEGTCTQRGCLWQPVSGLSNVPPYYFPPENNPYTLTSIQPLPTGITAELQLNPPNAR

In ChEMBL document CHEMBL1765068, “Role of the side chain stereochemistry in the α-glucosidase inhibitory activity of kotalanol, a potent natural α-glucosidase inhibitor” (Bioorg Med Chem, 2011):

Target: Sucrase-isomaltase, intestinal (Rattus norvegicus, UniProt P23739)
Assay: Inhibition of rat small intestinal sucrase after 30 mins
Method in brief: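 Enzyme source was rat small-intestinal brush-border membrane vesicles suspended in 0.1 M maleate buffer, pH 6.0. Substrate solutions were maltose 74 mM (maltase), sucrose 74 mM (sucrase) and isomaltose 7.4 mM (isomaltase). These were mixed with compound (DMSO, final 2.5%) and enzyme, incubated at 37 °C for 30 min, then boiled 2 min. Glucose was measured by glucose oxidase. IC50 was read graphically from % inhibition versus log concentration.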

IC50: 2000 nM
SMILES: C[C@H]1O[C@H](O[C@H]2[C@H](O)[C@@H](O)[C@@H](O[C@H]3[C@H](O)[C@@H](O)C(O)O[C@@H]3CO)O[C@@H]2CO)[C@H](O)[C@@H](O)[C@@H]1N[C@H]1C=C(CO)[C@@H](O)[C@H](O)[C@H]1O (stereo partly specified) [ACARBOSE]
